Experiment: Inhibition of beta hematin formation assessed as ratio of molar equivalents of compound to molar equivalents of hematin for 50% inhibition after 18 hrs
Type: functional

Structure (SMILES)	Ratio
CCCCNC(=O)C[C@H](O)[C@H](CC(C)C)NC(=O)[C@@H](NC(=O)c1ccc(Oc2ccc(C(=O)N[C@@H](C)C(=O)NCCCNc3ccnc4cc(Cl)ccc34)cc2)cc1)[C@@H](C)CC	0.79
CCCCNC(=O)C[C@H](O)[C@H](CC(C)C)NC(=O)[C@@H](NC(=O)c1ccc(Oc2ccc(C(=O)N[C@@H](CC(C)C)C(=O)N[C@@H](C)C(=O)NCCCNc3ccnc4ccccc34)cc2)cc1)[C@@H](C)CC	5.16

Reference: ChEMBL document CHEMBL2069175, “Antiplasmodial activities of 4-aminoquinoline-statine compounds” (Bioorg Med Chem Lett, 2012)
